The source of these data is article PMC3479967, “Drug-Drug Interactions Potential of Icariin and Its Intestinal Metabolites via Inhibition of Intestinal UDP-Glucuronosyltransferases” (Evidence-based Complementary and Alternative Medicine : eCAM, 2012).

This test has as its target T1, UGT1A3 (Homo sapiens, UniProt P35503).
T1 sequence (P35503 29-534): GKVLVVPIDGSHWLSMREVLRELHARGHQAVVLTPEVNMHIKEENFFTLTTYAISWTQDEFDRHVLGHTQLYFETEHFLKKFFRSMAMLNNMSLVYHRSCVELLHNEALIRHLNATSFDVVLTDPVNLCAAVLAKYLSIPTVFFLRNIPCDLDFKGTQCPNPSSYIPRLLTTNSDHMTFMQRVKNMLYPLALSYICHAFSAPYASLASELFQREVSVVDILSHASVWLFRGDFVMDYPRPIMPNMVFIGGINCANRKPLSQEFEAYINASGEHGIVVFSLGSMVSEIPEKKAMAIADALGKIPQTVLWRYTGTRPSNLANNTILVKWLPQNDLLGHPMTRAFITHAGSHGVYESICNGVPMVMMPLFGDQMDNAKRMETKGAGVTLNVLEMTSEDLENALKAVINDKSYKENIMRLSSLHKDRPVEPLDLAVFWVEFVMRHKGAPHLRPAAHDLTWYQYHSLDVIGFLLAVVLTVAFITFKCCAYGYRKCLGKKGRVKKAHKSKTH
Kind of test: Inhibition of recombinant UGT1A3 activity (4-MU glucuronidation). The following applies: read-out: IC50 for inhibition of UGT1A3 activity; recombinant human UGT1A3, 1200 μM 4-MU, mean ± SD. The protocol: A panel of recombinant human UGT supersomes (UGT1A1, UGT1A3, UGT1A4, UGT1A6, UGT1A7, UGT1A8, UGT1A9, UGT1A10, UGT2B4, UGT2B7, UGT2B15, and UGT2B17) expressed in baculovirus-infected insect cells were purchased from BD Gentest Corp. (Woburn, MA, USA).
4-MU, a nonselective substrate of UGTs, was used as probe substrate for all UGTs except UGT1A4. Incubations with each individual enzyme were conducted using conditions previously described. There was a 5 min preincubation step at 37°C before the reaction was started by addition of UDPGA. The incubation mixtures were then centrifuged at 20,500 ×g for 15 min to obtain the supernatant. Aliquots (20 μL) were then analyzed by HPLC. The HPLC system (SHIMADZU, Kyoto, Japan) consisted of an SCL-10A system controller, two LC-10AT pumps, a SIL-10A auto injector, and a SPD-10AVP UV detector. […] The mobile phase consisted of 10 mM KH2PO4, pH 2.7 (A) and acetonitrile (B). […]
Inhibition data from experiments were graphically represented by Dixon plots. K i values were calculated by nonlinear regression using the equations for competitive inhibition (1), noncompetitive inhibition (2), or mixed inhibition (3), [22] […] The type of inhibition was determined from the enzyme inhibition models. […]

Consider Icariside II, for which the IC50 is above 100 µM.
